# In patent US6340696B1, “Viral treatment” (The Procter & Gamble Company, priority 1999, dated 2002):
# How the values were obtained:
# [1] = test system: Madin-Darby bovine kidney (MDBK) cells; assay: Cytotoxicity in MDBK cells (drug toxicity control wells, XTT)
# Description: (§1) Madin-Darby bovine kidney (MDBK) cells were passaged in T-75 flasks for use in the assay. On the day preceding the assay, the cells were trypsinized, pelleted, counted and resuspended at 6×10^4/well in tissue culture medium. Cells were added to 96 well flat bottom plates in a volume of 100 μl per well.
# Interferon was purchased from PBL Biomedical Laboratories (New Brunswick, N.J.) and was in PBS solutions. On the day of testing, the drug stock is diluted in the medium to the desired high concentration and then further diluted in the medium in half log series.
# The day following plating of cells, plates are removed from the incubator, and medium is removed and discarded. Drug dilutions are added to appropriate wells of the microtiter plate in a volume of 100 μl per well. Each dilution is set up in triplicate. Complete medium or complete medium containing appropriately diluted virus is added to appropriate wells in a volume of 100 μl per well.
# The format of the test plate has been standardized. Each plate contains cell control wells (cell only), virus control wells (cells plus virus), drug toxicity control wells (cells plus drug only), drug colorimetric control wells (drug only) as well as experimental wells (drugs plus cells plus virus).
# (§2) The cell viability was evaluated by a dye (XTT) uptake procedure. XTT-tetraolium is metabolized by the mitochontrial enzymes of metabolically active cells to a soluble formazan product, allowing the rapid quantitative analysis of the inhibition of virus-induced cell killing by antiviral test substances.
# XTT solution was prepared daily as a stock of 1 mg/ml in PBS. Phenazine methosulfate (PMS) solution was prepared at 15 mg/ml in PVBS and stored in the dark at −20° C. STT/PMS stock was prepared immediately before use by diluting PMS 1:100 into PBS and adding 40 μl per ml of XTT solution. Fifty microliters of XTT/PMS was added to each well of the plate (each well had been loaded with 100 μl fresh medium) and the plate was reincubated for 4 hours at 37° C.
# Adhesive plate sealers were used in place of the lids, the sealed plate was inverted several times to mix the soluble formazan product and the plate was read spectrophotometrically at 450 nm (XTT) with a Molecular Devices Vmax plate reader.
# The efficacy and toxicity of inteferons are analyzed using a computer program (developed by Southern Research Institute) which calculates % CPE reduction, % cell viability, IC25,50 & 95, TC5,50 & 95 and other indices.
# Combination effects are analyzed statistically by Prichard and Shipman method. Effects of the drug combination on efficacy and toxicity are calculated based on the activity or toxicity of the two compounds when tested alone. The expected additive inhibition rate of virus production or the expected additive cell viability rate subtracted from the experimentally determined inhibition rate or viability rate at each combination concentration results in a positive value (synergy), a negative value (antagonism), or zero (addivity).
# BVDV = BVDV antiviral assay in MDBK cells, XTT readout of inhibition of virus-induced cell killing; assay type: cell-based; settings: TC50/IC50
# Description: as §1
# A pretitered aliquot of virus is removed from the freezer (−80° C.) and allowed to thaw slowly to room temperature in a biological safety cabinet. The virus is diluted into tissue culture medium such that the amount of virus added to each well in a volume of 100 μl will be the amount determined to give complete cell killing at 6 days post-infection.
# Interferon was purchased from PBL Biomedical Laboratories (New Brunswick, N.J.) and was in PBS solutions. […]
# as §2, with “substances. […]” for “substances.”
# Adhesive plate sealers were used in place of the lids, the sealed plate was inverted several times to mix the soluble formazan product and the plate was read spectrophotometrically at 450 nm (XTT) with a Molecular Devices Vmax plate reader. […]
# Combination effects are analyzed statistically by Prichard and Shipman method. […]
smiles,measurement,setting,value
"NC(=O)c1ncn([C@@H]2O[C@H](CO)[C@@H](O)[C@H]2O)n1 [Ribavirin, 1-β-D-ribofuranosyl-1H-1,2,4-triazole-3carboxamide, reference compound]",Cytotoxicity Percentage,"[1]; Compound conc 0, Ribavirin conc 0.075",−15.1%
same,Cytotoxicity Percentage,"[1]; Compound conc 0, Ribavirin conc 0.238",−8.6%
same,Cytotoxicity Percentage,"[1]; Compound conc 0, Ribavirin conc 0.751",−12.3%
same,Cytotoxicity Percentage,"[1]; Compound conc 0, Ribavirin conc 2.373",27.2%
same,Cytotoxicity Percentage,"[1]; Compound conc 0, Ribavirin conc 7.5",46.7%
same,Cytotoxicity Percentage,"[1]; Ribavirin conc 0.075, INF-αA conc 0",0%
same,Cytotoxicity Percentage,"[1]; Ribavirin conc 0.238, INF-αA conc 0",0.6%
same,Cytotoxicity Percentage,"[1]; Ribavirin conc 0.751, INF-αA conc 0",0%
same,Cytotoxicity Percentage,"[1]; Ribavirin conc 2.373, INF-αA conc 0",10.8%
same,Cytotoxicity Percentage,"[1]; Ribavirin conc 7.500, INF-αA conc 0",54.2%
same,TI,BVDV,10.82
